Counter-ions that a name gives are not always drawn.
Experiments:
recombinant human MAO-B [1] = molecular target: T1, recombinant human MAO-B (Homo sapiens, UniProt P27338); format: biochemical
recombinant human MAO-B [2] = molecular target: T1, recombinant human MAO-B; format: biochemical; remark: listed apart in the source

Chains of the proteins cited; added tags and fusions are not shown.
UniProt P27338, whole entry: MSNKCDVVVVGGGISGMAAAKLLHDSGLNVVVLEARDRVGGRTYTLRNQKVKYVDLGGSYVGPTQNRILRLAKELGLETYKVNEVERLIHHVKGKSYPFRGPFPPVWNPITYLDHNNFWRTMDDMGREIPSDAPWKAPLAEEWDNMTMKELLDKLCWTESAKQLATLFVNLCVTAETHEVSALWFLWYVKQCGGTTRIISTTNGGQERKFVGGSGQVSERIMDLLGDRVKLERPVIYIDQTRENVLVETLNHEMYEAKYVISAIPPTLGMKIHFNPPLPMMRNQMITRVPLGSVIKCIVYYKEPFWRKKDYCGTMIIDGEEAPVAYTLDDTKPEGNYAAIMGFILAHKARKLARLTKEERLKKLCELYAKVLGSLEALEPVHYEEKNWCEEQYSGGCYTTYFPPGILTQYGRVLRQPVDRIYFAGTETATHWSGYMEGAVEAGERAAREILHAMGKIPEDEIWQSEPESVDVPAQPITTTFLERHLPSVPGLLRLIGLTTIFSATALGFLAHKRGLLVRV

Monoamine oxidase-B Type of Inhibition (recombinant human MAO-B [1]): Mixed/Irreversible
nature of inhibition/binding with human MAO-B (dialysis) (recombinant human MAO-B [2]): irreversible inhibition/binding
SMILES: NNCCc1ccccc1 [Phenelzine, phenelzine sulfate, reference compound]

Reference: article PMC7132610 (Saudi Pharmaceutical Journal : SPJ, 2020)
